Consider three molecules from BindingDB's records for doi:10.1021/ml300405d (Therachem Research Medilab (India), 2013).

The target in this assay is Tyrosine-protein kinase SYK (Homo sapiens) (UniProt P43405). The experiment in a line: Inhibition of human Gst-tagged Syk expressed in sf9 cells.
Turning to `COc1ccc(Nc2nc(N3CCCC(C(=O)NCCc4ccncc4)C3)nc3scnc23)cc1OC` (stereo not drawn), the IC50 (usually the midpoint of a concentration-inhibition curve) is 19900 nM.
The result for `COc1ccc(Nc2nc(-c3cccc(CO)c3)nc3scnc23)cc1OC` reads 79 nM; that for `COc1ccc(Nc2nc(N3CCCC(C(=O)Nc4ccc(C(=O)O)nc4)C3)nc3scnc23)cc1OC` (stereo not drawn), 65 nM.
